Reference: patent US20040034104A1, “2,2-Diphenylbutanamide derivatives and medicines containing the same” (priority 2000, published 2004)

Tested on: opioid receptor (μ-opioid)
Test: Opioid receptor agonist activity in guinea pig ileum longitudinal muscle specimens
Settings: agonist activity relative to DAMGO (=1.0); ileum longitudinal muscle specimens with Auerbach's plexus; method of Oka et al.
Protocol: Hartley male guinea pigs (body weight: about 500 g) wer employed. The ileum (15-30 cm) was removed from the ileocecum of each guinea pig, to thereby prepare longitudinal muscle specimens having Auerbach's plexus. Opioid receptor activity of the test drugs was measured through a method proposed by Oka et al. (Eur. J. Pharmacol., 77; 137-141, 1982). Agonist activity is represented by the efficacy relative to the activity of DAMGO ([D-Ala^2, N-MePhe^4, Gly^5-ol]-enkephalin), which is a selective μ-opioid agonist.

`CN1CC[C@]23c4c5ccc(O)c4O[C@H]2[C@@H](O)C=C[C@H]3[C@H]1C5` [Morphine, morphine, reference compound] gave a Relative potency of 0.14.
